Reference: patent US9630961B2, “Arginine methyltransferase inhibitors and uses thereof” (Epizyme, Inc., priority 2013, dated 2017)

Protein sequences, listed by entry. Tags and fused reporters are not part of them.
UniProt Q9NR22, whole entry: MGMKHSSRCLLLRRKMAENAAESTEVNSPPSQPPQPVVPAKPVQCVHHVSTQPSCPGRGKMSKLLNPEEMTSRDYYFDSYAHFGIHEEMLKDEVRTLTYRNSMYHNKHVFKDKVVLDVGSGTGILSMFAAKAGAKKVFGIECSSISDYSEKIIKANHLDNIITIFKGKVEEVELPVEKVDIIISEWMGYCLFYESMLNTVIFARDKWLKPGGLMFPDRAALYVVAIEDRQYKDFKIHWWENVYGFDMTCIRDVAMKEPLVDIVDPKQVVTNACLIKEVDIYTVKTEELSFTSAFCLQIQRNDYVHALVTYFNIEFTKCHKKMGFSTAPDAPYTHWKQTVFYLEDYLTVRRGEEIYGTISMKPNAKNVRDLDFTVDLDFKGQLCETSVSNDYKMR

Biological target: PRMT8 (Homo sapiens, UniProt Q9NR22)
Assay: PRMT8 Biochemical Assay (3H-SAM Flashplate, peptide substrate)
Conditions: read-out: Biochemical IC50 PRMT8; 30 min preincubation, room temperature
Text: S-adenosylmethionine (SAM), S-adenosylhomocysteine (SAH), bicine, Tween20, dimethylsulfoxide (DMSO), bovine skin gelatin (BSG), isopropyl-β-D-thiogalactopyranoside (IPTG), and Tris(2-carboxyethyl)phosphine hydrochloride solution (TCEP) were purchased from Sigma-Aldrich at the highest level of purity possible. ^3H-SAM was purchase from American Radiolabeled Chemicals with a specific activity of 80 Ci/mmol. 384-well streptavidin Flashplates were purchased from PerkinElmer.
Peptide representative of human histone H4 residues 31-45 was synthesized with an N-terminal linker-affinity tag motif and a C-terminal amide cap by 21st Century Biochemicals. The peptide was purified by high-performance liquid chromatography (HPLC) to greater than 95% purity and confirmed by liquid chromatography mass spectrometry (LC-MS). The sequence was Biot-Ahx-KPAIRRLARRGGVKR-amide (SEQ ID NO.:8).
Full-length human PRMT8 (NM_019854.4) isoform 1 transcript clone was amplified from an HEK 293 cDNA library and subcloned into pGEX-4T-1 (GE Life Sciences). The resulting construct encodes an N-terminal GST tag and a thrombin cleavage sequence ([…] […] […] […]) (SEQ ID NO.:9) fused directly to Met 1 of PRMT8.
E. coli (BL21(DE3) Gold, Stratagene) made competent by the CaCl2 method were transformed with the PRMT8 construct and ampicillin selection. […]

SMILES	IC50
CNCCN(C)Cc1c[nH]nc1-c1cncnc1	3010 to 10000 nM
CNCCN(C)Cc1c[nH]nc1-c1csc2ccccc12	101 to 1000 nM
